Test system: 168 GPCRs
Assay: gpcrMAX panel, antagonist mode, whole panel
Conditions: 10 μM; >50% inhibition counted as significant

Compound: CNS(=O)(=O)Cc1ccc2[nH]cc(CCN(C)C)c2c1 [sumatriptan succinate]
- antagonist activity at any receptor tested: no antagonist activity

— publication PMC10703426, “New characterization of dihydroergotamine receptor pharmacology in the context of migraine: utilization of a β-arrestin recruitment assay” (Frontiers in Neurology, 2023)
